Patent US20060122106A1, “Prevention and/or treatment of inflammatory bowel disease using pyy or agonists thereof” (Amylin Pharmaceuticals, Inc, priority 2002, published 2006)

Test system: rat model of chronic colonic inflammation (colitis induced by TNBS)
Assay: TNBS hapten-induced colitis model of inflammatory bowel disease (Example 1)
Assay type: in vivo
Settings: TNBS colitis rats, excised spleen four days after induction (FIG. 3)
Procedure: Animal preparation: 10-11 weeks old male HSD rats, ranging 250-300 grams, were housed in a 12:12 light:dark cycle, and allowed ad libitum access to a standard rodent diet (Teklad L M 485, Madison, Wis.) and water. The animals were fasted for 24 hours before the experiment. Procedure: A simple and reproducible rat model of chronic colonic inflammation has been previously described by Morris G P, et al., “Hapten-induced model of chronic inflammation and ulceration in the rat colon.” Gastroenterology. 1989; 96:795-803. […] Rats were anesthetized with 3% isofluorane and placed on a regulated heating pad set at 37° C. A gavage needle was inserted rectally into the colon 7 cm. The hapten trinitrobenzenesulfonic acid (TNBS) dissolved in 50% ethanol (v/v) was delivered into the lumen of the colon through the gavage needle at a dose of 30 mg/kg, in a total volume of 0.4-0.6 mL, as described in Mazelin, supra. Control groups received saline solution (NaCl 0.9%) intracolonically. Four days after induction of colitis, the colon was resected from anesthetized rats, which were then euthanized by decapitation. Weights of excised colon and spleen were measured, and the colons photographed for scoring of gross morphologic damage according to Table 1 before division into 3 parts. The segment of colon 1 cm from the cecum was fixed in 10% formalin. Other segments were immediately frozen on dry ice. […]

For CC[C@H](C)[C@H](N)C(=O)N[C@@H](CCCCN)C(=O)N1CCC[C@H]1C(=O)N[C@@H](CCC(=O)O)C(=O)N[C@@H](C)C(=O)N1CCC[C@H]1C(=O)NCC(=O)N[C@@H](CCC(=O)O)C(=O)N[C@@H](CC(=O)O)C(=O)N[C@@H](C)C(=O)N[C@@H](CO)C(=O)N1CCC[C@H]1C(=O)N[C@@H](CCC(=O)O)C(=O)N[C@@H](CCC(=O)O)C(=O)N[C@@H](CC(C)C)C(=O)N[C@@H](CC(N)=O)C(=O)N[C@@H](CCCN=C(N)N)C(=O)N[C@@H](Cc1ccc(O)cc1)C(=O)N[C@@H](Cc1ccc(O)cc1)C(=O)N[C@@H](C)C(=O)N[C@@H](CO)C(=O)N[C@@H](CC(C)C)C(=O)N[C@@H](CCCN=C(N)N)C(=O)N[C@@H](Cc1cnc[nH]1)C(=O)N[C@@H](Cc1ccc(O)cc1)C(=O)N[C@@H](CC(C)C)C(=O)N[C@@H](CC(N)=O)C(=O)N[C@@H](CC(C)C)C(=O)N[C@H](C(=O)N[C@H](C(=O)N[C@@H](CCCN=C(N)N)C(=O)N[C@@H](CCC(N)=O)C(=O)N[C@@H](CCCN=C(N)N)C(=O)N[C@@H](Cc1ccc(O)cc1)C(N)=O)[C@@H](C)O)C(C)C [PYY[3-36]], the “spleen weight (systemic immune suppression)” value was “did not decrease”.
